Target: full-length human Nurr1 (NBRE) (Homo sapiens, UniProt P43354)
Settings: read-out: EC50 full-length human Nurr1 monomer (NBRE)

By UniProt entry, the sequences of proteins in these tests, tags left out.
UniProt P43354, whole entry: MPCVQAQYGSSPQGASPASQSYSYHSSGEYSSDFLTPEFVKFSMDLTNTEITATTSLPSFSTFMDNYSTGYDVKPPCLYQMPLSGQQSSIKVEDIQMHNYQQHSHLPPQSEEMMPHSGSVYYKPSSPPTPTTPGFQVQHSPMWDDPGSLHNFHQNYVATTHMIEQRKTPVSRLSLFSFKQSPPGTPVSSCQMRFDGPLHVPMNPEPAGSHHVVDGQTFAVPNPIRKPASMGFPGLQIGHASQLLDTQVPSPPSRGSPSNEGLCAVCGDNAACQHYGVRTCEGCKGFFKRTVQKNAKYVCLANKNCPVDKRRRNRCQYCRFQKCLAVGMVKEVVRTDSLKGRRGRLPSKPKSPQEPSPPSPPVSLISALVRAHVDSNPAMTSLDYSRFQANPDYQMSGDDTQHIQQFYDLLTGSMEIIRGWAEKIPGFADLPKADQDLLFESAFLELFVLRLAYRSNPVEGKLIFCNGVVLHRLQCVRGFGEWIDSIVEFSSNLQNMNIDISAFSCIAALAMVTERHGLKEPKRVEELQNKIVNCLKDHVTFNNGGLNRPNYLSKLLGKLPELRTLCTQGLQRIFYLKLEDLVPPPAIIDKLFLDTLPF

C#CCOc1cccc(-c2ccc(NC(=O)C3=C(C(=O)O)CCC3)c(F)c2)c1 [compound 29, 2-[(3-Fluoro-3′-prop-2-yn-1-yloxy[1,1′-biphenyl]-4-yl)carbamoyl]cyclopent-1-ene-1-carboxylic acid] was tested, and the EC50 was 220 ± 80 nM.

— PMC10184128 (Journal of Medicinal Chemistry, 2023)
